Test results from ChEMBL document CHEMBL1156281, “Reduction of hERG inhibitory activity in the 4-piperidinyl urea series of H3 antagonists” (Bioorg Med Chem Lett, 2010).
This is a selection: effects in other tests are not listed, and their absence says nothing.

Legend:
[1] = tested on: Caco-2; experiment: Permeability across human Caco-2 cells
[2] = Aqueous solubility at pH 7.4; details: buffer
[3] = tested on: Rattus norvegicus; experiment: Half life in rat at 10 mg/kg, po; details: in vivo

| SMILES | permeability [1] | solubility [2] | t1/2 [3] |
| --- | --- | --- | --- |
| CCN1CCC(N(C(=O)NCc2ccc(F)cc2)c2ccc(Cl)cn2)CC1 | 7.2 ×10⁻⁶ cm/s | – | – |
| O=C(NCc1ccccc1)N(c1ccc(Br)cc1)C1CCN(Cc2ccnnc2)CC1 | 26.9 ×10⁻⁶ cm/s | > 250 µM | 1 h |
| O=C(NCc1ccc(F)cc1)N(c1ccc(Br)cc1)C1CCN(C2CCCC2)CC1 | 11.6 ×10⁻⁶ cm/s | – | – |
